# AlphaSeq binding of Ab-14 light chain variants to a spike HR2 peptide

Data: MIT Lincoln Laboratory AlphaSeq set, Li et al. 2023, doi:10.1038/s41467-023-39022-2, as distributed in FLAb.

Binding partner: SARS-CoV-2 spike HR2 peptide, sequence PDVDLGDISGINAS.

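Phage display of a naive human antibody library on the peptide gave the parent. This is the validation round: designs drawn from the data on random variants, tested in the same kind of assay. Their group label is 14L_GP_HC (GP: Gaussian process model; HC: hill climbing; a sequence that several methods proposed may carry one label only). The scFvs were displayed on barcoded MATa yeast, the peptide on MATalpha yeast. The frequency of each diploid, read from paired DNA barcodes, reflects how well the two displayed proteins bind. A regression on co-assayed BCL2-family reference pairs converts the normalised counts of each replicate to an apparent Kd. Each pool was mated in six replicate cultures.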

Parent scFv Ab-14: VH joined to VL by a (GGGGS)3 linker. Changes lie in the light chain CDRs alone.
VH: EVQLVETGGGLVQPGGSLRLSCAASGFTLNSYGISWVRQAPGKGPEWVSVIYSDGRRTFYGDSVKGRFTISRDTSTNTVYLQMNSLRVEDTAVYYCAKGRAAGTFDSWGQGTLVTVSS
VL: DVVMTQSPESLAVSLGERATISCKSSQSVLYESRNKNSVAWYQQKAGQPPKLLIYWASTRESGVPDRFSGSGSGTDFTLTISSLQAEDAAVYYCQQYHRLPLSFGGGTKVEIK

Each variant is given by its three light chain CDRs, as the data file delimits them; those of the parent are KSSQSVLYESRNKNSVA, WASTRES, QQYHRLPLS. Affinities are written as log10 Kd with Kd in nM; a lower number is a better binder. A mean of the replicates is given; it leaves out those without a signal. An entry "n.d." has no value in the source: the pair was not observed among the diploids in that replicate. This suggests poor binding but is not conclusive. The range of this assay differs from that of the first round, and the authors advise against merging the two. Background: pairings of all light chain designs with three empty control strains gave a value in 4% of cases (median 2.64, 5th percentile 1.59). Values in that range, when seen in few replicates, are hard to tell from nonspecific mating. For each scFv, signals with the empty controls are counted beside the result, with their mean in brackets. In the paper, a design with two or fewer of six values counts as a poor binder. The parent sequence was in this pool as ten entries: three were never detected, three once, and four in most replicates, with averages from 0.34 to 2.37.

CDR-L1,CDR-L2,CDR-L3,log10 Kd (nM) by replicate,mean log10 Kd (nM),control signals
KSSFSVLFESRNKNSVA,DASTRSS,QQYHRLPLS,0.73 0.84 0.89 0.34 0.58 0.57,0.66,1/18 (2.56)
KISQSVLFEPRNKNSVA,DASTRES,QQYHRLPLS,0.20 0.22 0.14 -0.03 -0.04 0.14,0.11,1/18 (2.24)
KVSQSVLYESRTKNSVA,NGSTRES,QQMHRLPLS,n.d. n.d. n.d. n.d. n.d. n.d.,n.d.,1/18 (4.20)
KLSQSELYESRNKNSVA,GGSTRES,QQYHRLPLS,-0.26 -0.31 -0.11 -0.36 -0.20 -0.26,-0.25,2/18 (2.26)
KSSISYLGESRNKNSVA,EASTRES,QQYHRLPLS,0.65 0.57 0.10 0.01 -0.01 0.10,0.24,1/18 (2.16)
KYSISYLEESRNKNSVA,EASTRES,QQYHRLPLS,0.11 -0.02 -0.03 -0.13 0.03 0.04,0.00,2/18 (3.03)
KSSFSVLFESRNKNSVA,NASTRES,QQYHRLPLS,2.70 1.57 1.49 1.67 1.46 1.58,1.75,2/18 (2.80)
HVSPSVLYESRNKNSVA,NASTRES,QQYHRLPFS,-0.09 -0.18 -0.23 -0.25 -0.22 -0.13,-0.19,2/18 (2.29)
HSSQSVPYESRNKNSVA,NASTREE,QQYHRLPLS,0.14 -0.12 -0.08 -0.32 -0.20 0.04,-0.09,0/18
KVSQSVLFESRNKNSVA,DASTRCS,QQYHRLPLE,-0.05 -0.18 -0.19 -0.30 -0.20 -0.02,-0.16,5/18 (2.86)
KLRQSTLYESRNQNSVA,WASTREE,QQYHRLPLS,0.57 0.94 1.13 0.84 0.85 0.84,0.86,1/18 (2.94)
KCSQSVLYESRNKNAVA,DASTRES,QQYHRLPLS,-0.52 -0.56 -0.75 -0.88 -0.63 -0.45,-0.63,1/18 (2.10)
KFSQSVLYESRTQNSVA,NASTRES,QWYHRLPLS,0.68 0.34 0.16 0.67 0.76 0.47,0.51,2/18 (2.46)
KCSQSWLYESRNKNSVA,GASAREV,QQYHRLPLS,n.d. n.d. n.d. n.d. n.d. n.d.,n.d.,0/18
KSSISWLYESRNENSVA,EASTREQ,QQYHRLPLS,-0.19 -0.34 -0.35 -0.52 -0.28 -0.06,-0.29,1/18 (2.08)
KSGFGVLYESRNKNSVA,GASTRES,QQYHRLPLS,0.13 0.64 0.28 1.02 0.26 0.68,0.50,1/18 (1.68)
KGSGSVKFESRNKNSVA,DASTRES,QQYHRLPLS,0.08 -0.16 -0.38 -0.28 -0.44 -0.06,-0.21,0/18
NISQSWLYESRNKNSVA,GGNTRES,QQYHRLPLS,0.00 -0.10 0.23 0.20 0.64 -0.06,0.15,0/18
KSSWSVLYESNNKNSVA,QASTRED,QQYHRLPLS,0.59 0.24 0.57 0.42 0.61 0.42,0.47,3/18 (2.69)
KSLQSVLQESRNKNSVA,HASTRED,QQYHRLPLS,0.89 1.10 0.72 1.27 0.87 0.89,0.96,1/18 (3.16)
KQSQSVLYESRNKNSVA,MASIRES,QQYHRLPLS,1.14 0.88 0.92 0.52 0.74 0.70,0.82,0/18
KTPQGVLYESRNKNSVA,HASVRES,QQYHRLPLS,0.83 0.72 0.63 0.94 0.49 0.87,0.75,0/18
KMSQSVLMEHRNKNSVA,DASQRES,QQYHRLPLS,-0.16 -0.24 -0.24 -0.36 -0.19 -0.13,-0.22,1/18 (2.32)
KSSQSWLYESRNKNSVA,HASTREQ,QQYHRLPLM,0.40 0.79 0.81 0.67 0.76 0.67,0.68,0/18
KSSQSVLYESMNKNSVA,EASQRES,QQYHRLPLS,0.51 0.31 0.25 0.05 -0.02 0.51,0.27,3/18 (2.35)
KSSISQLEESRNKNSVA,EASTRES,QQYHRLPLS,-0.26 -0.27 -0.17 0.21 0.02 0.05,-0.07,0/18
HSSPSVLYESRNWNSVA,NASTRES,QQYHRLPLS,0.17 0.16 0.02 0.20 0.14 0.35,0.17,1/18 (4.31)
SLMQSVLYESRNKNSVA,HASLREQ,QQYHRLPLS,0.35 0.12 0.06 -0.04 -0.03 0.11,0.10,0/18
KSLQSVLYESRNQNSVA,HASTRED,QQYHRLPLS,0.62 0.55 0.61 0.46 0.98 0.64,0.64,0/18
KSGCGVLYESRNKNSVA,GASTRES,QQYHRLPLS,0.08 0.12 -0.13 -0.14 -0.10 0.08,-0.02,1/18 (3.01)
KSSESYLYESRNKNSVA,AASTRES,QQYHRLPLS,0.41 0.31 0.20 0.22 0.02 0.31,0.25,0/18
KMEQGWLYESRNKGSVA,GASVRES,QQYHRLPLS,0.58 0.15 0.10 0.12 0.24 0.36,0.26,2/18 (2.75)
KLSQEVLFESRNKNSVA,DASTRES,QQYHRLPLS,-0.33 -0.54 -0.43 -0.80 -0.56 -0.38,-0.51,0/18

Top 5 of the variants detected in all replicates, tightest first:

CDR-L1	CDR-L2	CDR-L3	log10 Kd (nM) by replicate	mean log10 Kd (nM)	control signals
KCSQSVLYESRNKNAVA	DASTRES	QQYHRLPLS	-0.52 -0.56 -0.75 -0.88 -0.63 -0.45	-0.63	1/18 (2.10)
KLSQEVLFESRNKNSVA	DASTRES	QQYHRLPLS	-0.33 -0.54 -0.43 -0.80 -0.56 -0.38	-0.51	0/18
KSSISWLYESRNENSVA	EASTREQ	QQYHRLPLS	-0.19 -0.34 -0.35 -0.52 -0.28 -0.06	-0.29	1/18 (2.08)
KLSQSELYESRNKNSVA	GGSTRES	QQYHRLPLS	-0.26 -0.31 -0.11 -0.36 -0.20 -0.26	-0.25	2/18 (2.26)
KMSQSVLMEHRNKNSVA	DASQRES	QQYHRLPLS	-0.16 -0.24 -0.24 -0.36 -0.19 -0.13	-0.22	1/18 (2.32)